The numbers were not newly measured in patent publication US20040167132A1, “Methods of treating conditions associted with an Edg-2 receptor” (priority 2003, published 2004), which cites them from elsewhere.

Molecules are shown by their SMILES.

In the series the target is Adrenergic α2.

For `COC(=O)[C@H]1[C@H]2C[C@H]3c4[nH]c5ccccc5c4CCN3C[C@H]2CC[C@@H]1O` [^3H Rauwolscine, Rauwolscine], the equilibrium dissociation constant (Kd) (usually a measure of binding affinity in units of concentration) is 7.8 nM.
